From PubChem BioAssay
Most compounds without a hit are left out; they make up all but 16% or so of the library.
uPA surface inh: inhibitors of cell surface uPA generation; 0.31% of 330,000 active; AID 540303; Potency, µM (top dose mostly 38.3 µM), without a hit: at the highest dose activity change, negative = inhibition, hits mostly inhibitors; cell surface uPA generation assay, qHTS; active = well fitted inhibition curve with a large enough effect; inconclusive = small, poorly fitted or top-dose-only effect; inactive = no such curve, though single readings can be large or run the other way; tested in mouse RAW 264.7 cells; note: potency is the fitted concentration of half-maximal effect; % is set by controls: 0 for no effect and ±100 for the full control effect; nearly all actives have a fitted effect of over 55% in size
TDP1 inh: TDP1 (human) enzyme inhibition; Q9NUW8; recombinant TDP1, AlphaScreen DNA substrate cleavage; Potency, µM (top dose mostly 130 µM), inactives show top-dose activity change, negative = inhibition, most hits filed as inhibitors; 0.28% of 350,000 active; AID 485290; note: potency is the fitted concentration of half-maximal effect; % is set by controls: 0 for no effect and ±100 for the full control effect; nearly all actives have a fitted effect of over 40% in size
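Recombinant human Tdp1 (E. coli-expressed, 1 nM final) preincubated with compounds 15 min at room temperature, then 5'-biotin/3'-phosphotyrosine-FITC DNA substrate (15 nM final) added for 5 min. AlphaScreen beads (10 ug/ml final) added 10 min; cleavage lowers signal.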
DT40 TDP1 no CPT: qHTS for Inhibitors of human tyrosyl-DNA phosphodiesterase 1 (TDP1): qHTS in cells in absence of CPT. DT40 Tdp1-/- hTDP1 cells, no CPT, ATP luminescence, 48 h. Potency, µM (doses to about 46.2 µM), without a hit: at the highest dose activity change, negative = growth inhibition, actives largely listed as inhibitors. 15% of 420,000 active; note: potency is the fitted concentration of half-maximal effect; % is set by controls: 0 for no effect and ±100 for the full control effect; nearly all actives have a fitted effect of over 55% in size
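Luminescent ATP content (CellTiter-Glo) served as the growth readout. Knockout chicken DT40 cells expressing human TDP1 were exposed to compounds without camptothecin for a minimum 48 hr at 37 °C.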
miR-21 reporter: raises the signal of a miR-21 reporter; 340,000 tested, under 10 active; HeLa miR-21 FLuc reporter, luciferase, 48 h; Potency, µM (highest dose often 38.3 µM), without a hit: top-dose reporter change, positive = more light; active = well fitted rising curve with a large enough effect; inconclusive = small, poorly fitted or top-dose-only effect; inactive = no such curve, though single readings can be large or run the other way;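 also: % of control where 0% means no effect; miR-21 action dims this reporter so a rising signal means less miR-21 action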
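HeLa cells stably expressing CMV-driven firefly luciferase with a downstream miR-21 binding sequence, endogenously expressing miR-21, were treated with titrations (up to about 40uM final) for 48 hours at 37 degree Celsius. Luciferase luminescence was read after lysis.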
TDP1 cell CPT: DT40-hTDP1 cell growth loss with CPT; chicken DT40 Tdp1-/-;hTDP1 cells + 20 nM CPT, ATP luminescence, 48 h; Potency, µM (doses to about 46.2 µM), for inactives: top-dose activity change, negative = growth inhibition, hits mostly inhibitors; 12% of 420,000 active; AID 686979; note: potency is the fitted concentration of half-maximal effect; % is set by controls: 0 for no effect and ±100 for the full control effect; nearly all actives have a fitted effect of over 55% in size
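Cell growth measured by CellTiter-Glo luminescence after a minimum 48 h, 37 C compound exposure with 20 nM CPT in Tdp1-knockout DT40 cells stably expressing hTDP1, seeded 400/well; qHTS titration format.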
* hit, by the source's call; ? = inconclusive; / = not tested or not shown; [ ] = dose if it differs, or a comment. Unless noted, calls come from the whole dose curve; as a rule, active = well fitted curve in the direction sought with a large enough effect; inconclusive = small, poorly fitted or top-dose-only effect, or another doubt; inactive = no such curve, though single readings can be large; an effect the other way counts as inactive or inconclusive.

| No. | SMILES | uPA surface inh | TDP1 inh | DT40 TDP1 no CPT | miR-21 reporter | TDP1 cell CPT |
| --- | --- | --- | --- | --- | --- | --- |
| 1 | CCOC1=CC2=C(C(=O)C(Cl)=CC2=O)[C@@H]2CN(S(=O)(=O)c3ccc(C)cc3)[C@@H](c3ccccc3)[C@H]12 | / | / | 1.8µM* | / | 1.2µM* |
| 2 | CCC(N=c1cc(-c2ccc(OC)cc2)oc2ccc(C)cc12)C(=O)O (stereo unspecified) | -4% | -3% | ? | -89% | -6% |
| 3 | CCCSC1=NC2(CCN(C(=O)NC3CCCCC3)CC2)N=C1c1ccc(OC)cc1 | / | 2% | 23µM* | 5% | 23µM* |
| 4 | O=C(Cn1c(=O)[nH]c2ccccc2c1=O)N1CCN(c2cccc(Cl)c2)CC1 | -4% | -1% | -11% | -3% | -11% |
| 5 | Cc1ccc(Cl)cc1N1CCN(C(=O)Cc2csc(Nc3nc(=S)[nH]c4ccccc34)n2)CC1 | -22% | 8% | 15µM* | 3% | 13µM* |
| 6 | O=C(Cc1csc(Nc2nc(=S)[nH]c3ccccc23)n1)N1CCN(c2cccc(Cl)c2)CC1 | 2% | 8% | 15µM* | 0% | 15µM* |
| 7 | CCOc1ccc(C(=O)NCC(c2ccco2)N2CCc3ccccc3C2)cc1 (stereo unspecified) | -8% | 1% | ? | / | ? |
| 8 | C[C@@]12C(=O)Nc3ccc(Br)cc3C(=O)N1[C@H]1c3ccccc3OC[C@@H]1[C@@H]2c1ccccc1 | ? | 3% | ? | / | ? |
| 9 | C[C@@]12C(=O)Nc3ccc(Br)cc3C(=O)N1[C@H]1c3cc(Cl)ccc3OC[C@@H]1[C@@H]2c1ccccc1 | -17% | 0% | 18µM* | / | ? |
| 10 | C[C@@]12C(=O)Nc3ccc(F)cc3C(=O)N1[C@H]1c3cc(Br)ccc3OC[C@@H]1[C@@H]2c1ccccc1 | ? | 0% | 23µM* | / | ? |
| 11 | C[C@@]12C(=O)N(CC3CCCO3)CC(=O)N1[C@H]1c3cc(Cl)ccc3OC[C@@H]1[C@@H]2c1ccccc1 (stereo partly specified) | 10% | 2% | 15µM* | / | 23µM* |
| 12 | Cc1ccc(C(=O)c2c3ccc(N)cc3nn2CCC(N)=O)cc1 | 1% | / | -8% | -7% | 2% |
| 13 | Cc1cc(C)cc(Nc2sc(C(=O)c3ccccc3)c(N)c2S(=O)(=O)c2ccccc2)c1 | / | 1% | ? | ? | -24% |
| 14 | CC(C(O)c1cc(=O)c(OCc2ccccc2)co1)[N+](=O)[O-] (stereo unspecified) | 1% | / | ? | / | ? |
| 15 | COc1coc(C(O)C[N+](=O)[O-])cc1=O (stereo unspecified) | 1% | 5% | ? | -2% | 29µM* |
| 16 | CN1CCCC(OC(=O)c2cccc(S(=O)(=O)N3CCCCCC3)c2)C1 (stereo unspecified) | -4% | 2% | -13% | -3% | ? |
| 17 | COc1ccc2[nH]c3c(c2c1)CCN1C(=O)C(CC(=O)NC(C)(C)C)C[C@H](C(=O)N2CCOCC2)[C@@]31CCC1CCCC1 (stereo partly specified) | 2% | 2%[56.1 µM] | -26% | / | -29% |
| 18 | COc1ccc2[nH]c3c(c2c1)CCN1C(=O)C(CC(=O)NCc2ccc(OC)c(OC)c2)C[C@H](C(=O)N2CCOCC2)[C@@]31CCC1CCCC1 (stereo partly specified) | ? | 0%[56.1 µM] | ? | / | ? |
| 19 | CC[C@]12c3[nH]c4ccc(Cl)cc4c3CCN1C(=O)[C@@H](CC(=O)NCc1cccc(C(F)(F)F)c1)C[C@@H]2C(=O)N1CCN(C(=O)C2CC2)CC1 | ? | 0%[56.1 µM] | ? | / | ? |
| 20 | C[C@]12c3[nH]c4ccc(Cl)cc4c3CCN1C(=O)[C@@H](CC(=O)NCc1cccc(C(F)(F)F)c1)C[C@@H]2C(=O)N1CCCCC1 | ? | 1%[56.1 µM] | 21µM* | / | ? |
| 21 | CC[C@]12c3[nH]c4cc(-c5ccco5)ccc4c3CCN1C(=O)[C@@H](CC(=O)NCc1cccc(C(F)(F)F)c1)C[C@@H]2C(=O)N1CCN(C(=O)c2ccco2)CC1 | ? | 2%[56.1 µM] | 8.2µM* | / | 8.2µM* |

Part of the list above with just uPA surface inh and DT40 TDP1 no CPT:
# | SMILES | uPA surface inh | DT40 TDP1 no CPT
21 | CC[C@]12c3[nH]c4cc(-c5ccco5)ccc4c3CCN1C(=O)[C@@H](CC(=O)NCc1cccc(C(F)(F)F)c1)C[C@@H]2C(=O)N1CCN(C(=O)c2ccco2)CC1 | ? | 8.2µM*
8 | C[C@@]12C(=O)Nc3ccc(Br)cc3C(=O)N1[C@H]1c3ccccc3OC[C@@H]1[C@@H]2c1ccccc1 | ? | ?
10 | C[C@@]12C(=O)Nc3ccc(F)cc3C(=O)N1[C@H]1c3cc(Br)ccc3OC[C@@H]1[C@@H]2c1ccccc1 | ? | 23µM*
